Experimental data taken from ChEMBL document CHEMBL1121747, “Side-chain effects on phenothiazine cation radical reactions” (J Med Chem, 1981).

Assay: Dissociation constant was reported
Type: physicochemical

For CN1CCN(CCCN2c3ccccc3Sc3ccc(C(F)(F)F)cc32)CC1 [TRIFLUOPERAZINE], which pKa is on record?
Its pKa is 3.9.
